This data set concerns human B-cell non-Hodgkin lymphoma Karpas-422 cell line. The data set is described as follows: Subcutaneous xenograft tumor model of Karpas-422 cell line in BALB/c nude mice. The protocol:
• Animal species and strain: BALB/c nude mice • Administration history: no history of administration • Sex, age, weight: female, 6-8 weeks, body weight 18-25 grams • Breeder/supplier: Shanghai Model Organisms Center, Inc. • Acclimation period: no less than 3-7 days • Room: SPF area room • Indoor temperature: 20-26°C • Indoor relative humidity: 40-70% • Lighting: fluorescent lamp illumination, 12-hour light (08:00-20:00) and 12-hour dark • Animal housing: 2-6 animals per cage (same administration group) • Food: unlimited access to feed (irradiated sterilized, Shaanxi Qinle Pharmaceutical Chemical Co., Ltd., China) • Water: unlimited access to drinking water (tap water purified by ultrapure water filtration system) • Female BALB/c nude mice were purchased from the supplier and used to select animals with suitable body weight range and tumor size for enrollment. All animals were specific pathogen-free, approximately 6-8 weeks old upon arrival at the laboratory.
The human B-cell non-Hodgkin lymphoma Karpas-422 cell line used in this experiment was cultured in RPMI-1640 medium supplemented with 10% FBS in a 37°C incubator with 5% CO2. Within ten passages of continuous culture, 100 µL of PBS containing 1 × 10^7 Karpas-422 cells was mixed with an equal volume of Matrigel, and the mixture was subcutaneously inoculated into the right side of the mouse near the armpit, with an inoculation volume of approximately 200 µL. Before inoculation, mice were anesthetized with 3-4% isoflurane.
When the tumors grew to an average size of approximately 70-150 mm^3, tumor-bearing mice were randomly assigned to groups based on tumor volume and body weight, with 8 mice per group. The day of grouping and administration was defined as Day 0. […] According to the results disclosed in the reference (J. Med. Chem. 2021, 64, 14540-14556), Compound D1 (CAS: 2585648-55-9) was selected as the positive compound for this experiment.
The control group was administered intraperitoneally with 70% aqueous solution containing 5% glucose + 30% aqueous solution containing 15% HP-β-CD. Table 12. Grouping and Administration Regimen
Tumor volume: For the subcutaneous xenograft model, tumor volumes were measured twice weekly after grouping. The tumor volume (V) was calculated as follows: V = (length × width^2) / 2. The relative tumor volume (RTV) for each nude mouse was calculated as: RTV = Vt / V0, where Vt is the measured volume at each time point, and V0 is the volume at the start of treatment.
Animal body weight: After grouping, mouse body weight was measured and recorded twice weekly.
The negative control group was the control group, and the treatment groups were the groups administered D1 or H105. Results are presented as mean ± S.E.M. Comparisons between two groups were performed using Dunnett's multiple comparison test. A p-value < 0.05 was considered statistically significant.

[1] abbreviates: Day 0 (day of grouping and administration), Compound D1 50 mg/kg p.o. QD, Compound H105 10 mg/kg p.o. QD.
The mark [2] stands for this setting: Day 30, Compound D1 50 mg/kg p.o. QD, Compound H105 10 mg/kg p.o. QD.

The record followed here is patent EP4831176A1, “BICYCLIC FUSED HETEROAROMATIC RING DERIVATIVE, AND PHARMACEUTICAL COMPOSITION AND USE THEREOF” (dated 2026).

The T/C is the result in the treated group divided by that in the control group, in per cent.

Compound `CC(C)N1Cc2cc(C(F)(F)F)ncc2-c2cnc(NCc3c(F)ccc4c3CCO4)n3cnc(c23)C1=O` displayed a T/C (Compound D1 50 mg/kg p.o. QD, Compound H105 10 mg/kg p.o. QD) of 2.53%. Besides, the “in vivo anti-tumor activity (in words)” value (Compound D1 at 50 mg/kg, Compound H105 at 10 mg/kg) is reported as “could effectively inhibit tumor growth”. Under setting [1], the “Average body weight D0” value amounted to 21.8 g and the “Tumor volume D0” value turned out to be 74. Besides, under setting [2], the “Average body weight D30” value is on record as 20.8 g and the “Tumor volume D30” value is 30. In addition, the RTV (relative tumor volume Vt/V0, Compound D1 50 mg/kg p.o. QD, Compound H105 10 mg/kg p.o. QD) is on record as 0.43. Further, the TGI (tumor growth (volume) inhibition rate, Compound D1 50 mg/kg p.o. QD, Compound H105 10 mg/kg p.o. QD) amounted to 103.56%.
